We go through 81 compounds from published antibiotic growth screens (doi:10.1038/s41589-023-01349-8).

This is one part of the list.

The test system of the test is A. baumannii ATCC 17978. The test is described as follows: relative growth (fraction of control); higher = less inhibition. To be noted: 50 µM.
`Cn1cnc(S(=O)(=O)N[C@H]2CC[C@H](CC(=O)N3CCN(c4ccccc4)CC3)O[C@@H]2CO)c1` showed a relative growth of 1.03. The value for `COc1ccc(-c2csc(C(C#N)=C3CCCCC3)n2)cc1` was 1.07. Then `CCOC(=O)Cn1cc(F)c(=O)[nH]c1=O`, with 1.02. Take `O=C(N/N=C/[C@H](O)[C@@H](O)[C@H](O[C@@H]1O[C@H](CO)[C@H](O)[C@H](O)[C@H]1O)[C@H](O)CO)c1ccccn1`: the relative growth came to 1.01.

Consider `NC(=O)NC(=O)Cc1ccccc1`, for which the relative growth was determined as 1.01.

In turn, `COC(=O)c1c(CC[C@@H](CO)NC(=O)N[C@H](Cn2cc(C3(O)CCCCC3)nn2)C(C)C)oc(C(C)=O)c1C(=O)OC` showed a relative growth of 0.877. Compound `COc1ccc(C(=O)c2ccc(C)cc2)c(O)c1` came in with a relative growth of 1.08. The value for `O=C(C[C@@H]1CC[C@@H]2[C@H](COC[C@@H](O)CN2C(=O)c2ccncc2)O1)NCc1ccc(-c2ccccc2)cc1` was 1.05; that for `COc1cccc(-c2ccc3c(c2)O[C@@H](CN(C)C(=O)C2CCOCC2)[C@H](C)CN([C@H](C)CO)S3(=O)=O)c1` was 0.892; that for `COc1cc(/C=C/C(=O)N2CCC=CC2=O)cc(OC)c1OC` was 0.948. `NCc1ccc2cc[nH]c(=O)c2c1` showed a relative growth of 0.957.

On to `CCn1cc(-c2ccc3ccccc3n2)c(=S)c2ccccc21`, for which the relative growth turned out to be 0.918. `COc1ccc(C2C(=O)c3ccccc3C2=O)cc1` gave a relative growth of 1.04. Then `Cc1cc2n(c(=O)c1C(N)=O)CCO2`, with 1.03; and `C[C@@H]1CN([C@@H](C)CO)S(=O)(=O)c2ccc(C#CCC3CCCC3)cc2O[C@H]1CN(C)C(=O)c1cnccn1`, with 0.67. Then `O=C(C[C@H]1CC[C@@H](NS(=O)(=O)c2ccc(F)cc2)[C@H](CO)O1)N1CCC(Cc2ccccc2)CC1`, with 0.881; and `O=C(CN1CCOCC1)NCC[C@@H]1CC[C@H](NC(=O)c2ccc3c(c2)OCO3)[C@H](CO)O1`, with 1.24. Then `CN(C)CCCN1c2ccccc2Sc2ccc(Cl)cc21.Cl`, with 0.628.

Compound `CN1C(=O)c2cc(NC(=O)C3CCCC3)ccc2OC[C@@H]2O[C@@H](CC(=O)NCCc3ccncc3)CC[C@@H]21` displayed a relative growth of 0.987.

In turn, `Cc1ncc([N+](=O)[O-])n1CC(O)CCl` (stereo unspecified) registered a relative growth of 1.06.

In turn, `O=C(C1=C[C@H](c2ccc(Br)cc2)C[C@H](OCc2ccc(CO)cc2)O1)N1CCN(Cc2ccccc2)CC1` registered a relative growth of 0.956. The value for `CCOC(=O)[C@@H](C)n1ncn2cccc2c1=O` was 1.04.

`Cn1c(=O)c2c(ncn2CCCCn2cnc3c2c(=O)n(C)c(=O)n3C)n(C)c1=O`: the relative growth is 1.01. Then `C(=N\n1cnnc1)/c1ccccn1`, with 1.06.

Turning to `COCCOC(=O)N1C(=O)[C@@]2(c3cc(C#Cc4ccc(OC)cc4)ccc31)[C@H](c1ccccc1OCCO)N1[C@H](c3ccccc3)[C@H](c3ccccc3)OC(=O)[C@H]1[C@@H]2C(=O)N1CCN(c2ncccn2)CC1`, the relative growth amounted to 1.31. Then `COc1cc(OC)c2c(OC)c(-c3ccc4c(c3)OCO4)c(=O)oc2c1`, with 0.957. The value for `NCc1nnnn1C1CCCCC1` was 1.03. Then `CN1C(C(=O)Nc2ccccn2)=C(O)c2sccc2S1(=O)=O`, with 0.948. In turn, `Cc1cccc(NC(=O)CN2C(=O)CNC2=O)c1` had a relative growth of 0.942.

Consider `Cc1ccc(/C(=C\CN2CCCC2)c2ccccn2)cc1.Cl`, for which the relative growth stood at 1.11.

As for `O=C(NC1CC1)[C@@H]1c2ccccc2C(=O)N(Cc2cc(C(F)(F)F)cc(C(F)(F)F)c2)[C@H]1c1ccc(CO)cc1`, the relative growth is 0.86.

With `CC[C@@]1(O)C(=O)OCc2c1cc1n(c2=O)Cc2cc3c(CN(C)C)c(O)ccc3nc2-1.Cl`, the relative growth was 0.925. Then `O=C(C[C@@H]1CC[C@H]2[C@@H](COC[C@@H](O)CN2Cc2cc(F)ccc2F)O1)N[C@H]1CCN(Cc2ccccc2)C1`, with 0.995. Take `COc1ccc(S(=O)(=O)N2C[C@@H](O)COC[C@@H]3O[C@@H](CC(=O)NCCCN4CCOCC4)CC[C@H]32)cc1`: the relative growth was 0.893.

`O=C(CS)NCCCCCNC(=O)[C@H]1C[C@H]2C(=O)NCC(=O)N2[C@H]1c1cccc(OCCO)c1`: the relative growth was 0.841. The value for `O=C(C[C@@H]1C=C[C@H](NC(=O)c2cccnc2)[C@@H](CO)O1)NCCN1CCCCC1` was 1.09. Then `Cc1c(C(N)=O)cc([N+](=O)[O-])cc1[N+](=O)[O-]`, with 0.795; and `O=C1CSCC(=O)N1c1cccnc1`, with 0.962. Then `C=CCOC(=O)[C@@H]1[C@H]2C(=O)O[C@H](c3ccccc3)[C@H](c3ccccc3)N2[C@H](c2ccc(OCCOC(=O)[C@H]3C[C@H]4C(=O)N[C@@H](CCCCN(C)C)C(=O)N4[C@H]3c3cccc(OCCO)c3)cc2)[C@@]12C(=O)Nc1ccc(I)cc12`, with 1.26; and `Cc1nn(C)cc1NC(=O)C[C@@H]1CC[C@@H]2[C@@H](COc3ccc(NC(=O)C4CCOCC4)cc3C(=O)N2C)O1`, with 0.911. In turn, `N=C(N)Nc1nc(=O)c2ccccc2[nH]1` came in with a relative growth of 0.941. Then `C[C@H]1CC2C3CCC4=CC(=O)C=C[C@]4(C)[C@@]3(F)[C@@H](O)C[C@]2(C)[C@@]1(O)C(=O)CO` (stereo partly specified), with 1.22. With `O=c1nc(NCc2ccco2)cc[nH]1`, the relative growth came to 0.966. Take `O=C(C[C@@H]1CC[C@@H](NC(=O)c2cccnc2)[C@@H](CO)O1)NCCN1CCCCC1`: the relative growth was 0.921. The value for `N=C(N=C(N)N)NCCc1ccccc1` was 0.971.

In turn, `COc1cccc(NC(=O)N2C[C@H](O)COC[C@H]3O[C@H](CC(=O)NC4Cc5ccccc5C4)CC[C@@H]32)c1` registered a relative growth of 0.862. Then `CC(C)(C)OC(=O)C[C@@H]1CC=CC[C@H](CC(=O)N[C@@H](CO)Cc2ccccc2)C(=O)N2CCC[C@H]2COC1=O`, with 0.935; and `C[C@@H]1OC2=C(Cl)C(=O)N3CCC[C@H]3C[C@@]21O`, with 0.965. In turn, `CC(C)c1cccc(C(C)C)c1NC(=O)Cc1cccs1` had a relative growth of 0.955. The value for `Cn1c(=O)c2[nH]cnc2n(C)c1=O` was 1.03; that for `COCCOC(=O)N1C(=O)[C@@]2(c3cc(C#CC4(O)CCCCCC4)ccc31)[C@H](C(=O)N1CCCCCCC1)[C@H]1C(=O)O[C@H](c3ccccc3)[C@H](c3ccccc3)N1[C@@H]2c1ccc(OCCO)cc1` was 0.988. Then `C[C@H]1OC(=O)c2c(O)ccc(O)c2[C@H]1O`, with 1.01; and `C=C1CC[C@H](O)C/C1=C/C=C1\CCCC2(C)C1CCC2C(C)CCCC(C)C` (stereo partly specified), with 1.34; and `NCCNc1ccc([N+](=O)[O-])c(NCCO)c1`, with 0.919. The value for `CN[C@@H]1[C@H](OC2[C@H](O[C@H]3[C@H](O)[C@@H](O)[C@H](NC(=N)N)[C@@H](O)[C@@H]3NC(=N)N)O[C@@H](C)[C@]2(O)C=O)O[C@@H](CO)[C@H](O)[C@H]1O.O=S(=O)(O)O` (stereo partly specified) [STREPTOMYCIN SULFATE [5mM; 10% aq DMSO + 5mM ethanolamine]] was 0.605; that for `Cc1[nH]c(=O)c(C#N)cc1-c1ccncc1` was 1.05; that for `C[C@H](CO)N1C[C@H](C)[C@H](CN(C)C(=O)C2CC2)Oc2cc(-c3ccc(C(=O)N(C)C)cc3)ccc2S1(=O)=O` was 0.972. `O=C(C[C@@H]1CC=CC[C@H](NC(=O)OCC2c3ccccc3-c3ccccc32)C(=O)O[C@H](c2ccccc2)CNC1=O)N[C@H](CO)Cc1ccccc1` gave a relative growth of 0.76. Then `Cc1ccc(S(=O)(=O)N(C)C[C@H]2Oc3cc(C#Cc4ccccc4)ccc3S(=O)(=O)N([C@@H](C)CO)C[C@H]2C)cc1`, with 1.04. `C#CCN(C)Cc1ccccc1.Cl` yielded a relative growth of 1.18. The value for `C=CC[C@@H](CC(=O)NCCO)C(=O)NC[C@H](OC(=O)[C@@H](CC=C)CC(=O)OC(C)(C)C)c1ccccc1` was 0.743; that for `C#C[C@]1(O)CC[C@H]2[C@@H]3CCc4cc(OC5CCCC5)ccc4[C@H]3CC[C@@]21C` was 1.07. The value for `Cc1ccnc2c1NC(=O)c1cccnc1N2C1CC1` was 1.3; that for `COCC#Cc1cnc2c(c1)C(=O)N([C@H](C)CO)C[C@@H](C)[C@H](CN(C)C(=O)Nc1ccc(OC)cc1)O2` was 1.19. As to `C=C(C(=O)O)[C@@H](CCCCCCOC(=O)C(=O)OCCCCCC[C@@H](C(=C)C(=O)O)C(=O)O)C(=O)O`, the relative growth was 0.935. The value for `C[C@H]1CN([C@@H](C)CO)S(=O)(=O)c2ccc(C#Cc3ccccc3)cc2O[C@@H]1CN(C)C(=O)Cc1ccccn1` was 0.913; that for `COCC(=O)N(C)C[C@H]1Oc2cc(-c3ccc(OC)cc3)ccc2S(=O)(=O)N([C@@H](C)CO)C[C@H]1C` was 1.01; that for `C[C@@H]1CN([C@H](C)CO)S(=O)(=O)c2ccc(C#Cc3ccc(F)cc3)cc2O[C@@H]1CN(C)S(C)(=O)=O` was 0.816. For `CC(CCc1ccc(O)cc1)NCC(O)c1ccc(O)cc1.Cl` (stereo unspecified), the relative growth came out at 1.05. With `O.O.OC[C@H]1O[C@H](O[C@H]2O[C@H](CO)[C@@H](O)[C@H](O)[C@H]2O)[C@H](O)[C@@H](O)[C@@H]1O`, the relative growth turned out to be 0.994. Regarding `CCC(=O)OC1[C@@H]2CC3=C4CC(=O)O[C@@H](c5ccoc5)[C@]4(C)CCC3[C@@](C)(C2=O)[C@@H](CC(=O)OC)C1(C)C` (stereo partly specified), the relative growth was found to be 1.04. The value for `Cc1[nH]c(=S)c(C#N)c(C)c1Cc1ccc(Cl)cc1Cl` was 1.09; that for `NCC[C@@H]1CC[C@@H](NC(=O)C2CCC2)[C@H](CO)O1` was 1.04; that for `CC1(C)O[C@@H]2CC3C4CCC5=CC(=O)CCC5(C)C4(F)C(O)CC3(C)[C@]2(C(=O)CCl)O1` (stereo partly specified) was 1.19. Then `COc1oc(C(=O)NC2CCCCC2)c(-c2ccc(Cl)cc2)c1S(=O)(=O)/C=C/c1ccccc1`, with 0.91; and `O=C(Nc1ccccc1)c1ccccc1O`, with 0.163. Then `CC(C)c1ccc(C(C)(C)CO)cc1`, with 1.12; and `Nc1nnc(C(=O)c2ccccc2N)s1`, with 0.934; and `COC(=O)C[C@H]1C(C)(C)C(=O)[C@@H]2CC3=C(CC[C@]4(C)C3=CC(=O)O[C@H]4c3ccoc3)[C@@]1(C)C2=O`, with 0.972. Regarding `Nc1ncnc2c1ncn2[C@@H]1O[C@H](COP(=O)(O)OP(=O)(O)OP(=O)(O)OP(=O)(O)OC[C@H]2O[C@@H](n3cnc4c(N)ncnc43)[C@H](O)[C@@H]2O)[C@@H](O)[C@H]1O`, the relative growth was 1.01.

`CN[C@@H]1C(O)[C@@H](O[C@@H]2[C@@H](O)[C@H](O[C@H]3OC(CN)=CC[C@H]3N)[C@@H](N)C[C@H]2N)OC[C@]1(C)O.O=S(=O)(O)O` (stereo partly specified) came in with a relative growth of 1.02.
